For orientation: EC50 means the midpoint of the concentration-response curve.

Each structure is given as a SMILES string. Read-outs that look alike come from different tables or passages of the source. A value given as a limit tells only on which side of the number the result lay.

The subject of this test is HCV Replicon GT-1b. Kind of test: microbe, parasite or virus in culture. As to conditions: Hepatitis C virus, GT1B, read-out: HCV Replicon Assay EC50 uM. (Replicon systems follow genome replication, usually without infectious particles.)

In the case of `C[C@@]1(F)[C@H](O)[C@@H](CO)O[C@H]1n1ccc(=S)[nH]c1=O`, the EC50 was > 100 µM.

As to `CC(C)OC(=O)[C@H](C)N[P@](=O)(OC[C@H]1O[C@@H](n2ccc(=O)[nH]c2=O)[C@](C)(F)[C@@H]1O)Oc1ccccc1` [drawing 460], the EC50 stood at 0.0199 µM.

In the case of `C[C@H](NP(=O)(O)OC[C@H]1O[C@@H](n2ccc(=O)[nH]c2=S)[C@](C)(O)[C@@H]1O)C(=O)O`, the EC50 is > 100 µM.

As for `CC(C)OC(=O)[C@H](C)NP(=O)(OC[C@H]1O[C@@H](n2ccc(=S)[nH]c2=O)[C@](C)(O)[C@@H]1O)Oc1ccccc1` (stereo partly drawn) [drawing 455], the EC50 is 7.98 µM.

Regarding `CC(C)OC(=O)[C@H](C)NP(=O)(OC[C@H]1O[C@@H](n2ccc(=S)[nH]c2=O)[C@](C)(F)[C@@H]1O)Oc1ccccc1` (stereo partly drawn), the EC50 is > 100 µM.

`C[C@@]1(O)[C@H](O)[C@@H](CO)O[C@H]1n1ccc(=O)[nH]c1=S` [drawing 452]: the half-maximal effective concentration (EC50) is > 100 µM.

`CC(C)OC(=O)[C@H](C)NP(=O)(OC[C@H]1O[C@@H](n2ccc(=S)[nH]c2=O)[C@H](O)[C@@H]1O)Oc1ccccc1` (stereo partly drawn) [drawing 462]: the EC50 was > 100 µM.

With `CC(C)OC(=O)[C@H](C)NP(=O)(OC[C@H]1O[C@@H](n2ccc(=O)[nH]c2=S)[C@](C)(O)[C@@H]1O)Oc1ccccc1` (stereo partly drawn) [drawing 456], the EC50 (Huh-luc/neo-ET) amounted to 0.152 µM.

In the case of `CC(C)OC(=O)[C@H](C)NP(=O)(OC[C@H]1O[C@@H](n2ccc(=O)[nH]c2=O)[C@](C)(O)[C@@H]1O)Oc1ccccc1` (stereo partly drawn), the EC50 turned out to be 0.0317 µM.

Turning to `CC(C)OC(=O)[C@H](C)NP(=O)(OC[C@H]1O[C@@H](n2ccc(=O)[nH]c2=[Se])[C@](C)(O)[C@@H]1O)Oc1ccccc1` (stereo partly drawn), the EC50 came out at 3.97 µM.

Regarding `C[C@@]1(O)[C@H](O)[C@@H](CO)O[C@H]1n1ccc(=S)[nH]c1=O`, the EC50 is > 100 µM.

For `CC(C)OC(=O)[C@H](C)N[P@@](=O)(OC[C@H]1O[C@@H](n2ccc(=O)[nH]c2=O)[C@](C)(F)[C@@H]1O)Oc1ccccc1`, the EC50 was determined as 0.221 µM.

In the case of `CC(C)OC(=O)[C@H](C)NP(=O)(OC[C@H]1O[C@@H](n2ccc(=O)[nH]c2=S)[C@](C)(O)[C@@H]1O)Oc1ccccc1` (stereo partly drawn) [drawing 453], the 50% effective concentration (EC50) turned out to be 0.187 µM.

As to `CC(C)OC(=O)[C@H](C)NP(=O)(OC[C@H]1O[C@@H](n2ccc(=O)[nH]c2=S)[C@H](O)[C@@H]1O)Oc1ccccc1` (stereo partly drawn) [drawing 463], the EC50 is 39.2 µM.

As for `C[C@@]1(O)[C@H](O)[C@@H](COP(=O)(O)O)O[C@H]1n1ccc(=O)[nH]c1=S`, the EC50 is 1.35 µM.

These data come from patent publication EP4817687A2, “NUCLEOTIDE AND NUCLEOSIDE THERAPEUTIC COMPOSITIONS AND USES RELATED THERETO” (Emory University, priority 2013, dated 2015).
